Columns and labels:
[1] = biological target: Nck1-SH3.1 (residues 4–59) (human) (UniProt P16333); test: AUC; multispeed sedimentation equilibrium; 50 μM dimeric Nck1-SH3.1 (4–59) preincubated at 42 °C for 24 h; measured at 20 °C; 25 mM HEPES/NaOH pH 7.4, 150 mM NaCl; monomer-dimer self-association model (2 M ⇄ D)
[2] = biological target: Nck1-SH3.1 (residues 4–59) (human) (UniProt P16333); test: SEC; monomer to dimer; 1.14 mM Nck1-SH3.1 (4–59) dimer, after overnight incubation at 37 °C; Superdex 75 Increase 3.2/300; 25 mM HEPES/NaOH pH 7.8, 150 mM NaCl; constant from integrated signals, equilibrium assumed
[3] = biological target: Nck1-SH3.1 (residues 4–59) (human) (UniProt P16333); test: AUC; multispeed sedimentation equilibrium; Nck1-SH3.1 (4–59) dimer peak from SEC at 10 and 50 μM; 20 °C; 25 mM HEPES/NaOH pH 7.4, 150 mM NaCl

## Nck1-SH3.1 (residues 4–59) (from UniProt P16333 4-59) (domain or fragment)
[1]
  Ka: 3380 M⁻¹
  Kd: 300 µM
[2]
  Ka: 4150 M⁻¹
  Kd: 180 µM
[3]
  stoichiometry N: 2

Source: publication PMC7278359, “Small molecule AX-024 reduces T cell proliferation independently of CD3ϵ/Nck1 interaction, which is governed by a domain swap in the Nck1-SH3.1 domain” (The Journal of Biological Chemistry, 2020)
